# Measurements from patent US6881414B2, “Mild cosmetic composition with stabilized retinoids” (Unilever Home & Personal Care USA, division of Conopco, Inc., priority 2000, dated 2005).
# Biological target: T1, LRAT (Bos taurus, UniProt Q9BGL2)
# T1 construct: followed by approximately 15 μg of RPE microsomal protein; tissue W. L. Lawson Co; host or cells: bovine retinal pigment epithelium microsomes
# T1 sequence (Q9BGL2 1-230): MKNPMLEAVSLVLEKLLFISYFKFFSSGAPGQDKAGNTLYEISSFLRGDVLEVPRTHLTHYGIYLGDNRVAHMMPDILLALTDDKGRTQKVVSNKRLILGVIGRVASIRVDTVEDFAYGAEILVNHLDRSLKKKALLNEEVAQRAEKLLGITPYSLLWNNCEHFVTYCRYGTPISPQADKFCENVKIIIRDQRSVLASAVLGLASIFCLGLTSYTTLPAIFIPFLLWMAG
# Assay: LRAT activity assay, RPE microsomes (to identify B1)
# Type: biochemical, bovine
# Conditions: compound 100 μm
smiles,measurement,value
CC1=CCC(C(C)(C)O)CC1 (stereo not drawn) [Alpha-Terpineol],% Inhibition LRAT (100 μm),25%
